Measurements taken from ChEMBL document CHEMBL2311363, “Cyanide antidotes for mass casualties: water-soluble salts of the dithiane (sulfanegen) from 3-mercaptopyruvate for intramuscular administration” (2013).
Converted amounts (≈) assume the structure as drawn.

How the values were obtained:
Mus musculus [1] = test: Antidotal efficacy in ND-4 Swiss-Webster mouse sublethal cyanide model assessed as reduction in recovery time at 0.73 mol/kg, im administered 40 mins post cyanide challenge (reference value: 69.0 +/- 2.1 mins )
Mus musculus [2] = test: Antidotal efficacy in ND-4 Swiss-Webster mouse sublethal cyanide model assessed as reduction in recovery time at 0.73 mol/kg, im administered 30 mins post cyanide challenge (reference value: 68.0 +/- 2.0 mins )
Mus musculus [3] = test: Antidotal efficacy in ND-4 Swiss-Webster mouse sublethal cyanide model assessed as reduction in recovery time at 0.73 mol/kg, im administered 5 mins post cyanide challenge (reference value: 68.3 +/- 3.2 mins )
Mus musculus [4] = test: Antidotal efficacy in ND-4 Swiss-Webster mouse sublethal cyanide model assessed as reduction in recovery time at 0.73 mol/kg, im administered 10 mins post cyanide challenge (reference value: 68.6 +/- 1.3 mins )
[5] = Half life in phosphate buffer at pH 7.4
[6] = Aqueous solubility of the compound at 20 degC by shake flask method; details: buffer
[7] = Stability in D2O/deuterated phosphate buffer at pH 1.4 over 22 hrs; details: pH 1.4, 22 h

| SMILES | Time (Mus musculus [1]) | Time (Mus musculus [2]) | Time (Mus musculus [3]) | Time (Mus musculus [4]) | t1/2 [5] | solubility [6] | Stability [7] |
| --- | --- | --- | --- | --- | --- | --- | --- |
| O=C([O-])C1(O)CSC(O)(C(=O)[O-])CS1.[Na+].[Na+] (stereo not given) | 58.7 min | 49 min | 19.7 min | 31 min | 2 h | 350 mM | Stable |
| N[C@H]1C(O)O[C@H](CO)[C@@H](O)[C@@H]1O.N[C@H]1C(O)O[C@H](CO)[C@@H](O)[C@@H]1O.O=C(O)C1(O)CSC(O)(C(=O)O)CS1 (stereo not given) | – | – | – | – | – | 490 mM | – |
| O=C(O)C1(O)CSC(O)(C(=O)O)CS1 (stereo not given) | – | – | – | – | – | 190 mM (≈ 45.6 mg/mL) | – |
| NC(CO)(CO)CO.NC(CO)(CO)CO.O=C(O)C1(O)CSC(O)(C(=O)O)CS1 (stereo not given) | – | – | – | – | – | 480 mM | – |
